By IC50 is commonly meant the concentration that inhibits the measured activity by half.

Sequences of proteins named here, by UniProt entry; tags and fusion partners are left off.
UniProt P49356, whole entry: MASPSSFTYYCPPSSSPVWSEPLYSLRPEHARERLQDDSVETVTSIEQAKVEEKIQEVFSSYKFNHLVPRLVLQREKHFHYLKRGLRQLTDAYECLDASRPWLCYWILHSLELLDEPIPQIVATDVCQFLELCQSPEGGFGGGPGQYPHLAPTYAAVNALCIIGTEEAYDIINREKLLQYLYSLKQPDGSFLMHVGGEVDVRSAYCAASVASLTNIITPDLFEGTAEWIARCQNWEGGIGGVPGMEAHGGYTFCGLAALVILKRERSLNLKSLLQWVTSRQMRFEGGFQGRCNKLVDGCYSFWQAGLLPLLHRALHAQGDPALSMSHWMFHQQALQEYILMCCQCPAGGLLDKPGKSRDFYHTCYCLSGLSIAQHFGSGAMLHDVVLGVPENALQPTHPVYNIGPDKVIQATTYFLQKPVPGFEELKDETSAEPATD

Assay [1] deals with farnesyl protein transferase (FPT), H-ras (Homo sapiens, UniProt P49354+P49356). Kind of assay: FPT IC50 (H-ras), inhibition of farnesyl protein transferase, in vitro enzyme assay. The conditions noted are these: read-out: FPT IC50; Table 4.
The test system of a further assay is Human tumor cells. Kind of assay: Soft Agar Assay (anchorage-independent growth). The note with it: read-out: Soft Agar IC50; Table 5. Type of assay: cell-based. As for the experimental part: Anchorage-independent growth is a characteristic of tumorgenic cell lines. Human tumor cells are suspended in growth medium containing 0.3% agarose and an indicated concentration of a farnesyl transferase inhibitor. The solution is overlayed onto growth medium solidified with 0.6% agarose containing the same concentration of farnesyl transferase inhibitor as the top layer. After the top layer is solidified, plates are incubated for 10-16 days at 37° C. under 5% CO2 to allow colony outgrowth. After incubation, the colonies are stained by overlaying the agar with a solution of MTT (3-[4,5-dimethyl-thiazol-2-yl]-2,5-diphenyltetrazolium bromide, Thiazolyl blue) (1 mg/mL in PBS). Colonies can be counted and the IC50's can be determined.

Another assay deals with COS Cell. Kind of assay: COS Cell IC50 (Cell-Based Assay). The note with it: read-out: Cos Cell IC50; Table 5. As for the experimental part: FPT IC50 (inhibition of farnesyl protein transferase, in vitro enzyme assay) and COS Cell IC50 (Cell-Based Assay) were determined following the assay procedures described in WO 95/10516, published Apr. 20, 1995. GGPT IC50 (inhibition of geranylgeranyl protein transferase, in vitro enzyme assay), Cell Mat Assay, and anti-tumor activity (in vivo anti-tumor studies) could be determined by the assay procedures described in WO 95/10516. The disclosure of WO 95/10516 is incorporated herein by reference thereto.

For `CNC(=O)C(=O)N1CCC(CC(=O)N2CCC([C@H]3c4ncc(Br)cc4CCc4cc(Cl)cc(Br)c43)CC2)CC1` [Cmpd 64.0-B], in assay [1], the IC50 amounted to 5.2 nM.

For the compound `COC(=O)CCCCCC(=O)N1CCC(CC(=O)N2CCC([C@H]3c4ncc(Br)cc4CCc4cc(Cl)cc(Br)c43)CC2)CC1`, the results for the IC50 (in the assay on Human tumor cells; in assay [1]; in the assay on COS Cell) were 220 nM, 6.9 nM and 10 nM, respectively.

For the compound `COC(=O)CCCCC(=O)N1CCC(CC(=O)N2CCC([C@H]3c4ncc(Br)cc4CCc4cc(Cl)cc(Br)c43)CC2)CC1`, the IC50 came to 320 nM in the assay with Human tumor cells, 5.3 nM in assay [1] and 10 nM in the assay with COS Cell.

The values are drawn from patent publication US6387905B2, “Compounds useful for inhibition of farnesyl protein transferase” (Schering Corporation, priority 1996, dated 2002).
